The experiment concerns the target T1, Apelin receptor (Homo sapiens, UniProt P35414).
T1 sequence (P35414 whole entry): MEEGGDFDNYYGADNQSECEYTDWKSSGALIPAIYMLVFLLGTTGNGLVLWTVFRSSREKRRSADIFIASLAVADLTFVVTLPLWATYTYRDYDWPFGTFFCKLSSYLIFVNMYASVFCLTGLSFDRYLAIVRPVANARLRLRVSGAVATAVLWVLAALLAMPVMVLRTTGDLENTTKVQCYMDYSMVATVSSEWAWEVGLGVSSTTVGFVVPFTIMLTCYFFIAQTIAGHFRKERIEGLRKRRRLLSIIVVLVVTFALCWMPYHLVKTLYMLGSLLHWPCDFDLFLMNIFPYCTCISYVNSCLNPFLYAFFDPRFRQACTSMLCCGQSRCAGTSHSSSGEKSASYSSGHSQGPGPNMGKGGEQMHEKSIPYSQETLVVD
Description: Agonist activity at human APJ receptor assessed as effect on cAMP accumulation by cAMP-Glo assay. The format is functional.

For `COc1cccc(OC)c1-n1c(CCC(C)C)nc(=O)c(S(=O)(=O)c2ccc(-c3ccc(F)nc3)cc2)c1O`, the EC50 (in general, the concentration needed to bring the measured effect to its halfway point) worked out at 0.05 nM.

Source of the values: ChEMBL document CHEMBL4808235, “Identification of 6-hydroxy-5-phenyl sulfonylpyrimidin-4(1H)-one APJ receptor agonists” (Bioorg Med Chem Lett, 2021).
